In US20070265212A1, “Drug Transport and Delivery System” (LUZERN ACQUISITION CORP., C/O STRELA DEVELOPMENT, priority 2002, published 2007):

Assays:
red blood cells = assay: Metabolite formation in the presence of red blood cells (HPLC, mass spectrometry); type: in vitro ADME; settings: 1 ml of blood containing 20 μg/ml of the ADM derivative, 5×10^9 RBC
Procedure: (§1) These metabolites were identified by HPLC and mass spectrometry to be m-L-Sarcolysin, prolyl-m-L-sarcolysin, fluoro-phenylalanine and prolyl-m-sarcolysyl-p-fluoro-phenylalanin.
(§2) According to hitherto is available results this metabolite is most probably ADM linked to one Phe moiety. This was done with 1 ml of blood containing 20 μg/ml of the ADM derivative as well as 5×10^9 RBC compared to only 5×10^6 melanoma cells.

human melanoma cells = assay: Metabolite formation in the presence of human melanoma cells (HPLC, mass spectrometry); type: in vitro ADME; settings: 5×10^6 melanoma cells; metabolite most probably ADM linked to one Phe moiety
Procedure: as §1, §2

With “Prolyl-adriamycin-linked-phenylalanyl-p-fluoro-phenylalanyl [PFPP-ADM]” the “HPLC detectable metabolite in the presence of red blood cells” value (red blood cells) was “no HPLC detectable metabolite” and the “metabolite generated in the presence of human melanoma cells” value (human melanoma cells) was “one major single metabolite”.
